Measured values reported in ChEMBL document CHEMBL1134200, “Pimarane cyclooxygenase 2 (COX-2) inhibitor and its structure-activity relationship” (Bioorg Med Chem Lett, 2001).

Biological target: T1, Prostaglandin G/H synthase 2 (Ovis aries, UniProt P79208)
T1 sequence (P79208 whole entry): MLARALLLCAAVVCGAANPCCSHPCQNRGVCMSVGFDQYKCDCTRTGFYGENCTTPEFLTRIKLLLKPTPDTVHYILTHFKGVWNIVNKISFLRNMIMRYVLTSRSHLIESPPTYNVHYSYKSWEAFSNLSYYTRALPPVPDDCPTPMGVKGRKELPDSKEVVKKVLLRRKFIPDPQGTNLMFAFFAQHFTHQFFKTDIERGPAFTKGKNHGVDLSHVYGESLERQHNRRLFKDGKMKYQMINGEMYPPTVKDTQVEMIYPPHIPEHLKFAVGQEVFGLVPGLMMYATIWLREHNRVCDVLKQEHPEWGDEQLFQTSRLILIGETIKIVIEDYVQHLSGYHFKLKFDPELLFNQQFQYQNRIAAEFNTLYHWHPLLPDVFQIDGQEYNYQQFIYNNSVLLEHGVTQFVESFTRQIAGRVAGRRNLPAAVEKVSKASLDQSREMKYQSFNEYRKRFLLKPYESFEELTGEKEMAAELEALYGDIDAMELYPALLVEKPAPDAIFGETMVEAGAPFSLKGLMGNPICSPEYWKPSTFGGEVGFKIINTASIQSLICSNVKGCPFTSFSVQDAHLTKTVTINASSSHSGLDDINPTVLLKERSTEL
Assay: Inhibitory activity against Prostaglandin G/H synthase 2 from sheep placental cotyledons

- IC50: 38.7 µM
Compound: C=C[C@@]1(C)CC=C2C(CCC3[C@](C)(CCCCC(=O)O)CCC[C@@]23C)C1 (stereo partly specified)
